{"sequences": {"note": "Protein sequences, listed by entry. Tags and fused reporters are not part of them.", "UniProt P41148, whole entry": "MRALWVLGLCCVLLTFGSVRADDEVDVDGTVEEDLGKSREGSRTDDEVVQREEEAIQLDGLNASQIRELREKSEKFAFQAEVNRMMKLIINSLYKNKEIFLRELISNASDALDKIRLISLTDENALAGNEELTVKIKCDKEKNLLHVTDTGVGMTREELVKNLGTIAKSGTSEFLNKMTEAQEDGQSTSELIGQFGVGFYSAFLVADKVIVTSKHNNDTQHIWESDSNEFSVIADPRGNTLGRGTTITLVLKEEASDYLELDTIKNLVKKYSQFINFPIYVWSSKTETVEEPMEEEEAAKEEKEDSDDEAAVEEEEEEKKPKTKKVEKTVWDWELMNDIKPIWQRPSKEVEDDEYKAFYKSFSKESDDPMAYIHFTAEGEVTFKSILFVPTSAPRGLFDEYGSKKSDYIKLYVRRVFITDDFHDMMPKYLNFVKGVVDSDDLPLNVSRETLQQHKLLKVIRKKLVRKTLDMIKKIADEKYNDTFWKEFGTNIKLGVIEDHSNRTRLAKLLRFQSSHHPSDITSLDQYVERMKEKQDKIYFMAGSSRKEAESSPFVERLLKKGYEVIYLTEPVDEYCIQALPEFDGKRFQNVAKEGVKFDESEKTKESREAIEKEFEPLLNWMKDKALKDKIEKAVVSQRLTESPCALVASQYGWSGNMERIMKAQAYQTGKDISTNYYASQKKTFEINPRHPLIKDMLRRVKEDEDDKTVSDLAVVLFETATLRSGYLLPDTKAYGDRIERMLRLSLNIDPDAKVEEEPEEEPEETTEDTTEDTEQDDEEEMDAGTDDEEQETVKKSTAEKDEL"}, "source": "ChEMBL document CHEMBL3425404", "about": "“Structure-activity relationship in a purine-scaffold compound series with selectivity for the endoplasmic reticulum Hsp90 paralog Grp94” (J Med Chem, 2015)", "molecular_target": "Endoplasmin (Canis lupus familiaris, UniProt P41148)", "test": "Displacement of Cy3B-GM from recombinant Grp94 (unknown origin) after 24 hrs by fluorescence polarization assay"}
{"smiles": "C#CCCCn1c(Sc2cc(C)ccc2C)nc2c(N)ncnc21", "values": [{"measurement": "IC50", "result": 1.14, "unit": "µM"}]}
